Assay results reported in ChEMBL document CHEMBL6096677, “Discovery of HZS60 as a Novel Brain Penetrant NMDAR/TRPM4 Interaction Interface Inhibitor with Improved Activity and Pharmacokinetic Properties for the Treatment of Cerebral Ischemia” (J Med Chem, 2025).
Calls of active or inactive are those of the source. The calls are words filed in the database; no cut-off is given here.

Chains of the proteins cited; added tags and fusions are not shown. Lines headed by an entry give the natural chain unless they say otherwise; changes in a name come on top.
UniProt Q91ZU9: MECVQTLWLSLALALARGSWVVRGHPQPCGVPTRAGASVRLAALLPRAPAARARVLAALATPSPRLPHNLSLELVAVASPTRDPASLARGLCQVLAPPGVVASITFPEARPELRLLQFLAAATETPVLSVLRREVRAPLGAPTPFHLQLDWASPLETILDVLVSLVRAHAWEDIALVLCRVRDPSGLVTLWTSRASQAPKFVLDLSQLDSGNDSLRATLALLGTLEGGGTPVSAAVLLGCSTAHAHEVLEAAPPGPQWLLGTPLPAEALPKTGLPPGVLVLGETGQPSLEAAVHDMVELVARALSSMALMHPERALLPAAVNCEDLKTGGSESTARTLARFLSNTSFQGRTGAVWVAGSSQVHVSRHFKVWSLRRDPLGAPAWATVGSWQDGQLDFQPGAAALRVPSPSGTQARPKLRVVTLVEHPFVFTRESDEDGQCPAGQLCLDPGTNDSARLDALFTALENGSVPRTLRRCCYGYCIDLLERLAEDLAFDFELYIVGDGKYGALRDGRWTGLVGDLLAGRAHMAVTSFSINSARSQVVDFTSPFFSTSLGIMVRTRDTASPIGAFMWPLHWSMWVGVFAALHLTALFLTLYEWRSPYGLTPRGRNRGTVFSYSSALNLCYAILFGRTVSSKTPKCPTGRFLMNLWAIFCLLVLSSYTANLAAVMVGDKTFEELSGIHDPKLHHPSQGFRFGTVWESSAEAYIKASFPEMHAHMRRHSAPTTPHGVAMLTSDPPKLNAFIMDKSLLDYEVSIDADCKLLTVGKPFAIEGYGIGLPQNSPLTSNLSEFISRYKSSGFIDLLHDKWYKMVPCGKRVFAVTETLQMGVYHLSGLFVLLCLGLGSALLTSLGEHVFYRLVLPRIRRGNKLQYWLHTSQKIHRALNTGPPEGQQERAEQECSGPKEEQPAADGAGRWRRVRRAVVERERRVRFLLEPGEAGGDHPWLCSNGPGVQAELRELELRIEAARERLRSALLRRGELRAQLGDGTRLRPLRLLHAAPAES
UniProt Q03391: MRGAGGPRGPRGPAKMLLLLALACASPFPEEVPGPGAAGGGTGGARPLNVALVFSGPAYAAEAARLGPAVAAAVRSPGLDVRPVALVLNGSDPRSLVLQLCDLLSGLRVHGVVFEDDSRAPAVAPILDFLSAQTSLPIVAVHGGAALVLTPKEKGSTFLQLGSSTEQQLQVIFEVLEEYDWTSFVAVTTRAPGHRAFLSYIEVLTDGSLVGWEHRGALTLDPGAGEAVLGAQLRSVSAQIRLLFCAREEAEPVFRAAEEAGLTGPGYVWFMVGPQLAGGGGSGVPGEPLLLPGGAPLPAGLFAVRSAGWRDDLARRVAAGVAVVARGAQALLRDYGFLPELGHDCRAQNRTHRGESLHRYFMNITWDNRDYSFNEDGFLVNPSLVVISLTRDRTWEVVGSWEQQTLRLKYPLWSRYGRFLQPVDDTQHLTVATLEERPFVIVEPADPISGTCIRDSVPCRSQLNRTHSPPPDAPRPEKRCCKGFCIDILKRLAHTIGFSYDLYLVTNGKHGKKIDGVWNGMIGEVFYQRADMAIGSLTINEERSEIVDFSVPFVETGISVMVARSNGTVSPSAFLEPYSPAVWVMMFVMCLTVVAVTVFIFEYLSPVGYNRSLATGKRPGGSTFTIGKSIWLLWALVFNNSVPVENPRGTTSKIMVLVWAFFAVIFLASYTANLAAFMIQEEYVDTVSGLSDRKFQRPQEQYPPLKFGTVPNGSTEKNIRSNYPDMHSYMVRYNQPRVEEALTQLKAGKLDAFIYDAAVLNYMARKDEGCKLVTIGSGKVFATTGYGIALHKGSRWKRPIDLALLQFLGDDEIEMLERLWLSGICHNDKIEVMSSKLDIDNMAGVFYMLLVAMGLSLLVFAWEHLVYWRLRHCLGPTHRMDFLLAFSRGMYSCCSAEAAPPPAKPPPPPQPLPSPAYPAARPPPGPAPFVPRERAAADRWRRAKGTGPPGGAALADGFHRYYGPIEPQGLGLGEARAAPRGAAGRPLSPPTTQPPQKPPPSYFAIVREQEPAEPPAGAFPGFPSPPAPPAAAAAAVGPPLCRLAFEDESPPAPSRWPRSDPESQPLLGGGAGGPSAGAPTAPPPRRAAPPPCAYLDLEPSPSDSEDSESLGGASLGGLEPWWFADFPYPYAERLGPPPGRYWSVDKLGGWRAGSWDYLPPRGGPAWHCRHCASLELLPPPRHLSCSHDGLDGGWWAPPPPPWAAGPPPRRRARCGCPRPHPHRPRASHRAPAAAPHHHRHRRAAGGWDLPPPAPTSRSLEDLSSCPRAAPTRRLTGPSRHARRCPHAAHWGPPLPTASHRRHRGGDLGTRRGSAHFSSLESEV
UniProt Q01097: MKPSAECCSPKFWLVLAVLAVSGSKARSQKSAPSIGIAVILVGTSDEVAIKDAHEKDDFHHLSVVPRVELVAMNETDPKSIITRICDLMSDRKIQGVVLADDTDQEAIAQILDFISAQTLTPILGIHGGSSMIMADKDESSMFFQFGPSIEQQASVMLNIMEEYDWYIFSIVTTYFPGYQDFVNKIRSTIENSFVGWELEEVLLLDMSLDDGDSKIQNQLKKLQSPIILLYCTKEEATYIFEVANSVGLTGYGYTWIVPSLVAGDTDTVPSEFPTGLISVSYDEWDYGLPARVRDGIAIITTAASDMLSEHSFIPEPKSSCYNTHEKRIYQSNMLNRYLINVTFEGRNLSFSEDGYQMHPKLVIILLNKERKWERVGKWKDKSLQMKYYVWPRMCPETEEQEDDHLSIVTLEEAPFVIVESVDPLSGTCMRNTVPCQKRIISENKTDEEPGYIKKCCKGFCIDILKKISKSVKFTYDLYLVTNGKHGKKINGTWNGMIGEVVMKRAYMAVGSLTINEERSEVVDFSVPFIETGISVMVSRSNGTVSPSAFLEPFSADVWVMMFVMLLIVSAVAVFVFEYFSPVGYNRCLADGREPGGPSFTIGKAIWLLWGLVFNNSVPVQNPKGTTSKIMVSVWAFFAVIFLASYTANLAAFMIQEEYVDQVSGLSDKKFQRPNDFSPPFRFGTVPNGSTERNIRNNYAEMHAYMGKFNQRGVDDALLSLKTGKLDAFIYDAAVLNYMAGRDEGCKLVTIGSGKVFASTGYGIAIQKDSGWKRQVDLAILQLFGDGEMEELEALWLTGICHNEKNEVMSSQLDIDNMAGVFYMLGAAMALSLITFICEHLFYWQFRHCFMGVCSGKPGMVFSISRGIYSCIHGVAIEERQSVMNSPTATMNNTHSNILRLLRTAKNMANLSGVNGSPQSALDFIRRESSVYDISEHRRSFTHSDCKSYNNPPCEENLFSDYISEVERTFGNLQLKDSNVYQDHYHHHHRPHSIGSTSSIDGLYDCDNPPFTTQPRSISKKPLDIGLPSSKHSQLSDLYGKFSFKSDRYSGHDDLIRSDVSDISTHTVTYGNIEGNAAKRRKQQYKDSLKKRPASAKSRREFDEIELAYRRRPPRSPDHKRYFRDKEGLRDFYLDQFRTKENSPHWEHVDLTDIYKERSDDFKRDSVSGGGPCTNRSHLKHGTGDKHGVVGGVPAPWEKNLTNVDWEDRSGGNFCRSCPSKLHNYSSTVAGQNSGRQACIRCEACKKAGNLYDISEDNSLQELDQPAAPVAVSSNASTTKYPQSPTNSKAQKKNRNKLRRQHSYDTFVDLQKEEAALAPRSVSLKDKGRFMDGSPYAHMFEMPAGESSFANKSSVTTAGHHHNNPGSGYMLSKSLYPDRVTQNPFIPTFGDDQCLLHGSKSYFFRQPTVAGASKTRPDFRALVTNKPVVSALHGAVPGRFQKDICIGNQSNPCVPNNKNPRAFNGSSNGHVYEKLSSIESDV
UniProt Q01098: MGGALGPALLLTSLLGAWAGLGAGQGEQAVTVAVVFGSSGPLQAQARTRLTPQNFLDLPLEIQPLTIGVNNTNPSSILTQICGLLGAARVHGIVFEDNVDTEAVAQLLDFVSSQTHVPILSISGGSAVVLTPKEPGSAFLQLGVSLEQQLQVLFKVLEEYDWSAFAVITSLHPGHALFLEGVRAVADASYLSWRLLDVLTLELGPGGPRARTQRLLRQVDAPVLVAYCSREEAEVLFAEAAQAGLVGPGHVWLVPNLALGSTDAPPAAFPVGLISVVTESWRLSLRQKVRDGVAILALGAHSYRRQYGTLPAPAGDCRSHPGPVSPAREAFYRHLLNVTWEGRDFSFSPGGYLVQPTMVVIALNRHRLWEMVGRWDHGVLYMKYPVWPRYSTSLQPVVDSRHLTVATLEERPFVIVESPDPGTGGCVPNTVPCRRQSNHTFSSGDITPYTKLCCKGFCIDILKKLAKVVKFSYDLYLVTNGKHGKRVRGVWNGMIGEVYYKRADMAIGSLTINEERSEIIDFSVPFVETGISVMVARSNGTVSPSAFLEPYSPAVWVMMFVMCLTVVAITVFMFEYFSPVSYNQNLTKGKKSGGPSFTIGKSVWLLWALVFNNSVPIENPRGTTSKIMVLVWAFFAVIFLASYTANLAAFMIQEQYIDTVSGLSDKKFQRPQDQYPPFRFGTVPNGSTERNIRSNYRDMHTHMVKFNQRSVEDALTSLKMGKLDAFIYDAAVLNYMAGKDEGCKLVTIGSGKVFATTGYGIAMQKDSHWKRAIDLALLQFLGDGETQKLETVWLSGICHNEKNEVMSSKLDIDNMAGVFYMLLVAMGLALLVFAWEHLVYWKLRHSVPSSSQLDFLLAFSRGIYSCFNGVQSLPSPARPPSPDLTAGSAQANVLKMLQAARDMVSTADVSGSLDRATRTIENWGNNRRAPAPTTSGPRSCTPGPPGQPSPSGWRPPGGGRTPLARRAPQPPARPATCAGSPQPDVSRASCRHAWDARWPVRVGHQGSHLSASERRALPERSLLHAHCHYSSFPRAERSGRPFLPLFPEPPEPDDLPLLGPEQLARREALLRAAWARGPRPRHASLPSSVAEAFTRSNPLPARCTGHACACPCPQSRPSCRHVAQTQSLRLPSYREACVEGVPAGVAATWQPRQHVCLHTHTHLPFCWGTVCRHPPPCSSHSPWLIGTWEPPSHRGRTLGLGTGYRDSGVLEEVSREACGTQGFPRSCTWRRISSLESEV
UniProt A2AIR5: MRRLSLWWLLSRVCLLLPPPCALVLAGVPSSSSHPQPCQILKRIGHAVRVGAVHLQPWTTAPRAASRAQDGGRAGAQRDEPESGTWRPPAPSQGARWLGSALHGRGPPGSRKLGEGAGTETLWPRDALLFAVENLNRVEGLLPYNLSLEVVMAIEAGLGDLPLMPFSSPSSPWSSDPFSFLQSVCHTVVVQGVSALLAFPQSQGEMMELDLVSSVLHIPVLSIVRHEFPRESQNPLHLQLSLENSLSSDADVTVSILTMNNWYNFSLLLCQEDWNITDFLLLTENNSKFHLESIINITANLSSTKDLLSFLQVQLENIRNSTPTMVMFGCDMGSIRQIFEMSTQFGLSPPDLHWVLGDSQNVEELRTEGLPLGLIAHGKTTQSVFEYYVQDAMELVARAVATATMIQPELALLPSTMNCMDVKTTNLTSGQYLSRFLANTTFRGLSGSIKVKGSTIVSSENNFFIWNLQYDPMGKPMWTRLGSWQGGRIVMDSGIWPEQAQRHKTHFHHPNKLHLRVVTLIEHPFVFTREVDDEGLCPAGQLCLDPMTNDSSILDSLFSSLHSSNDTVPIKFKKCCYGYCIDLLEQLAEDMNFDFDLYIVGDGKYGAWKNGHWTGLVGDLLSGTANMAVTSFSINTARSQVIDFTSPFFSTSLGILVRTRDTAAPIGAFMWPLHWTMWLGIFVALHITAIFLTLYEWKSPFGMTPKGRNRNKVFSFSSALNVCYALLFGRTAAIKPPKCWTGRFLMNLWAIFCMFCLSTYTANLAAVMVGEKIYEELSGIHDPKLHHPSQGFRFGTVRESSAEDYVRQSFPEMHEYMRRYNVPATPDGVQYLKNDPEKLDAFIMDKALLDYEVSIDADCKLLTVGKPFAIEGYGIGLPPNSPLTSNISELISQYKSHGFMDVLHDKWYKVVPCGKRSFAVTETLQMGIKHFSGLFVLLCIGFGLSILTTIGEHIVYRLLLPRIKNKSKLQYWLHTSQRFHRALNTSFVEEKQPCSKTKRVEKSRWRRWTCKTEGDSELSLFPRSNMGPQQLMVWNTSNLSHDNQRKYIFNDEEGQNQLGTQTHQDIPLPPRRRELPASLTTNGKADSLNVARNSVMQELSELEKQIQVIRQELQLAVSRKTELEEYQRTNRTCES

Legend:
[1] = target: T1, Glutamate NMDA receptor (Mus musculus) (UniProt P35436+Q91ZU9+Q03391+P35438+Q01097+Q01098+A2AIR5); assay: Inhibition of NMDAR in C57BL/6 mouse primary cortical neurons assessed as increase in NMDA-reduced p-ERK level by Western blot analysis; assay type: cell-based; details: Primary cortical neuron
[2] = target: T1, Glutamate NMDA receptor (Mus musculus); assay: Inhibition of NMDAR in C57BL/6 mouse primary cortical neurons assessed as increase in NMDA-reduced p-CREB level by Western blot analysis; assay type: cell-based; details: Primary cortical neuron
[3] = target: T2, Transient receptor potential cation channel subfamily M member 4 (Mus musculus) (UniProt Q7TN37); assay: Inhibition of TRPM4 in NMDA-treated C57BL/6 mouse primary cortical neurons by immunofluorescence based analysis; assay type: cell-based; details: Primary cortical neuron
T2 sequence (whole entry): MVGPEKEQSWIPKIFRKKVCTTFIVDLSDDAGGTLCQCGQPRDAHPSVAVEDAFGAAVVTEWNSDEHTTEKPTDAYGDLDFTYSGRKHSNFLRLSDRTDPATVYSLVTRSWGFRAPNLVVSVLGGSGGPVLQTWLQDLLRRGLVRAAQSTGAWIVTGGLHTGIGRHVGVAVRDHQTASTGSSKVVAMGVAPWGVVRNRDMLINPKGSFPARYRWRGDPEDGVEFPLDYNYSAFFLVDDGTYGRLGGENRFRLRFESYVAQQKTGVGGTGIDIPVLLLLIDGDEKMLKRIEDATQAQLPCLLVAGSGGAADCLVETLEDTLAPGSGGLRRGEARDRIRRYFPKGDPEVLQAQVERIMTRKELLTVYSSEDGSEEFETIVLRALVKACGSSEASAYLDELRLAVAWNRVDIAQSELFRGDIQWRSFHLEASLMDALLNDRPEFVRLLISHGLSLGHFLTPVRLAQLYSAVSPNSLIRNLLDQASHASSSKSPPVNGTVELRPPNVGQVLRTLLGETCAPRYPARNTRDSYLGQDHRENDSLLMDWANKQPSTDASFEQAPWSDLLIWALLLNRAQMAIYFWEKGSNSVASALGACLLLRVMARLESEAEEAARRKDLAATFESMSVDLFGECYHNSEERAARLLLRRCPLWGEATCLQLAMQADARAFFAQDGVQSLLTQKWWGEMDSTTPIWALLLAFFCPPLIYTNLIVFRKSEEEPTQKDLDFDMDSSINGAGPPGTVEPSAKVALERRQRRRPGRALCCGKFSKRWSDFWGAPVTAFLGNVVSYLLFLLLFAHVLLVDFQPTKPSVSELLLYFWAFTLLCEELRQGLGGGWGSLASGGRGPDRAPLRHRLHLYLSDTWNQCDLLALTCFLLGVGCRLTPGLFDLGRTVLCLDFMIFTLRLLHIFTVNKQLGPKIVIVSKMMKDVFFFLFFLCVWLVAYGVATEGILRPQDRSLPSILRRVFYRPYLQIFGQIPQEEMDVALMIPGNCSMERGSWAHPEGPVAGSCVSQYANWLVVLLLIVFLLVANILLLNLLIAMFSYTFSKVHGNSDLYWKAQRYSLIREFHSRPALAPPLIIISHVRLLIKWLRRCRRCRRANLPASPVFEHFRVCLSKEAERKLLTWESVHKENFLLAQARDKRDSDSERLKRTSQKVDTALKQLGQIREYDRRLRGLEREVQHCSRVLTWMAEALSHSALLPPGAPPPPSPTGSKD

[4] = target: T1, Glutamate NMDA receptor (Mus musculus); assay: Inhibition of NMDAR-mediated synaptic current in mouse acute hippocampus by whole-cell patch-clamp recording method; assay type: tissue-based
[5] = target: T1, Glutamate NMDA receptor (Mus musculus); assay: Inhibition of NMDAR-mediated extrasynaptic current in mouse acute hippocampus by whole-cell patch-clamp recording method; assay type: tissue-based
[6] = target: T1, Glutamate NMDA receptor (Mus musculus); assay: Inhibition of NMDAR in C57BL/6 mouse primary cortical neurons assessed as increase in NMDA-reduced p-CaMKII level by Western blot analysis; assay type: cell-based; details: Primary cortical neuron
[7] = target: T1, Glutamate NMDA receptor (Mus musculus); assay: Inhibition of NMDAR in C57BL/6 mouse primary cortical neurons assessed as increase in NMDA-reduced p-Akt level by Western blot analysis; assay type: cell-based; details: Primary cortical neuron
[8] = target: T1, Glutamate NMDA receptor (Mus musculus); assay: Inhibition of NMDAR in C57BL/6 mouse primary cortical neurons assessed as increase in OGD/R-reduced p-ERK level by Western blot analysis; assay type: cell-based; details: Primary cortical neuron
[9] = target: T1, Glutamate NMDA receptor (Mus musculus); assay: Inhibition of NMDAR in C57BL/6 mouse primary cortical neurons assessed as increase in OGD/R-reduced p-CREB level by Western blot analysis; assay type: cell-based; details: Primary cortical neuron
[10] = target: T1, Glutamate NMDA receptor (Mus musculus); assay: Inhibition of NMDAR in C57BL/6 mouse primary cortical neurons assessed as increase in OGD/R-reduced p-CaMKII level by Western blot analysis; assay type: cell-based; details: Primary cortical neuron
[11] = target: T1, Glutamate NMDA receptor (Mus musculus); assay: Inhibition of NMDAR in C57BL/6 mouse primary cortical neurons assessed as increase in OGD/R-reduced p-Akt level by Western blot analysis; assay type: cell-based; details: Primary cortical neuron

- inhibition [1]: Active
- inhibition [2]: Active
- inhibition [3]: Active
- inhibition [4]: inactive
- inhibition [5]: inactive
- inhibition [6]: Active
- inhibition [7]: Active
- inhibition [8]: Active
- inhibition [9]: Active
- inhibition [10]: Active
- inhibition [11]: Active
Compound: CCN(CCN)C(C)c1c(F)ccc(C#N)c1F (stereo unspecified)
